Amino acid sequences for entries named in this document (tags omitted). Residues count along the entry.
UniProt P47929, whole entry, species assumed: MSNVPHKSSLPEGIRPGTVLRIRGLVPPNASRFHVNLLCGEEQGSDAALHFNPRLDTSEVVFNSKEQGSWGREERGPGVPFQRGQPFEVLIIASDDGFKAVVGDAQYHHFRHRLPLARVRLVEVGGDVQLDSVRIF
UniProt O00182, 17-148 limits assumed, species assumed: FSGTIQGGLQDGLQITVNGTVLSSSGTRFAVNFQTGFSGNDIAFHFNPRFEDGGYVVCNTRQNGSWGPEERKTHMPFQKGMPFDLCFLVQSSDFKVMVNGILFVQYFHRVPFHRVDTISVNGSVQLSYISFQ
UniProt O00182, 227-355 limits assumed, species assumed: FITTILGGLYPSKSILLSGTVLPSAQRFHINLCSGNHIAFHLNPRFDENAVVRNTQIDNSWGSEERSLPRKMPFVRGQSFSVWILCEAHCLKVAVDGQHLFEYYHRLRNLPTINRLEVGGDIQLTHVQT
UniProt P09382, whole entry, species assumed: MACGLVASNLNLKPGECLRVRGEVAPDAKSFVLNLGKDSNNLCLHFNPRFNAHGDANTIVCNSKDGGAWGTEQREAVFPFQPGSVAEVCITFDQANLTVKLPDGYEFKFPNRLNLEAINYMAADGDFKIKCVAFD

In US9353141B2, “Galectoside inhibitors of galectins” (GALECTO BIOTECH AB, priority 2012, dated 2016):

Experiments:
Assay in all cases: Fluorescence polarization-based galectin inhibition assay
[1] = molecular target: galectin-7 (Homo sapiens, UniProt P47929)
[2] = molecular target: galectin-9 (N-terminal domain) (Homo sapiens, UniProt O00182)
[3] = molecular target: galectin-9 (C-terminal domain) (Homo sapiens, UniProt O00182)
[4] = molecular target: galectin-1 (Homo sapiens, UniProt P09382)

pKd [1]: 3.80
pKd [2]: 4.42
pKd [3]: 4.36
pKd [4]: 4.62
Compound: OC[C@H]1O[C@@H](S[C@@H]2O[C@H](CO)[C@H](O)[C@H](O)[C@H]2O)[C@H](O)[C@@H](O)[C@H]1O [thiodigalactoside, reference compound]

pKd: −log10 of the molar value.
